PMC3521580 (Journal of medicinal chemistry, 2011)

Chains of the proteins cited; added tags and fusions are not shown.
UniProt P32245, whole entry: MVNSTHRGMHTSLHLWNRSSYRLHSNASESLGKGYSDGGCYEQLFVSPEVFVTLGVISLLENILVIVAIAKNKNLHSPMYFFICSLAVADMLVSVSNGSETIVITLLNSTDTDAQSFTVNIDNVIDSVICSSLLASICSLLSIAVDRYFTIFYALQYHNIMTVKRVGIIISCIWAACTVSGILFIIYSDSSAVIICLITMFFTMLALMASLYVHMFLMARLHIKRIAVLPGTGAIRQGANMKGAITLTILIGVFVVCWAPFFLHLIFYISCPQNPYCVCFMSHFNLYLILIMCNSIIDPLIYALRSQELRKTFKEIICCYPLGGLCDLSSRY

Molecular target: human MC4R (Homo sapiens, UniProt P32245)
Test: cAMP biological response chemiluminescent immunoassay in Hek293/hMC4R cells
Format: cell-based
Conditions: hMC4R cells, result in words

- cAMP production, agonist activity at MC4R: weak agonist
Compound: CC(=O)N[C@@H](Cc1c[nH]cn1)C(=O)N[C@H](Cc1ccccc1)C(=O)N[C@@H](CCCNC(=N)N)C(=O)N[C@@H](Cc1c[nH]c2ccccc12)C(N)=O [Ac-MSH(4), reference compound]
